Literature values in US20110319427A1 (priority 2009, published 2011).

Tested on: bortezomib-resistant THP1 leukemia cells (β5 proteasome subunit mutated and over-expressed)
Conditions: cited from earlier work

CC(C)C[C@H](NC(=O)[C@H](Cc1ccccc1)NC(=O)c1cnccn1)B(O)O [bortezomib, [(1R)-3-Methyl-1-[[(2S)-1-oxo-3-phenyl-2-[(pyrazinylcarbonyl)amino]propyl]amino]butyl]boronic acid]
fold resistance to bortezomib: up to 237 fold
